Reference: ChEMBL document CHEMBL4819001, “Discovery of tetrahydroquinolines and benzomorpholines as novel potent RORγt agonists” (Eur J Med Chem, 2021)
Activity calls are given as the source filed them. No cut-off for these calls is given here.

How the values were obtained:
[1] = target: T1, Nuclear receptor ROR-beta (Homo sapiens) (UniProt Q92753); experiment: Binding affinity to RORbeta (unknown origin)
T1 sequence (whole entry): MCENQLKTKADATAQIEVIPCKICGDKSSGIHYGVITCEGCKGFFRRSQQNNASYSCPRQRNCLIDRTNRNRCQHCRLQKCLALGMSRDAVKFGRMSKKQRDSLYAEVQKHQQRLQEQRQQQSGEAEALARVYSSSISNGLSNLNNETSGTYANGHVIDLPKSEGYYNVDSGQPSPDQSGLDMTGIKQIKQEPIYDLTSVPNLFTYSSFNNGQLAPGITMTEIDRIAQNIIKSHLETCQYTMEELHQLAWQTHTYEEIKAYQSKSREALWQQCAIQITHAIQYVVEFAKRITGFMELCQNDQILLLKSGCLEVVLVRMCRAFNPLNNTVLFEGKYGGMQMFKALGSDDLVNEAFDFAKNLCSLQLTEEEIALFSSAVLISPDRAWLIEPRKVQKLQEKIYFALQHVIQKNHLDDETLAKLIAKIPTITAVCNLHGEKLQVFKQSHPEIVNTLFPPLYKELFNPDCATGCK

[2] = target: T2, Nuclear receptor ROR-alpha (Homo sapiens) (UniProt P35398); experiment: Binding affinity to RORalpha (unknown origin)
T2 sequence (whole entry): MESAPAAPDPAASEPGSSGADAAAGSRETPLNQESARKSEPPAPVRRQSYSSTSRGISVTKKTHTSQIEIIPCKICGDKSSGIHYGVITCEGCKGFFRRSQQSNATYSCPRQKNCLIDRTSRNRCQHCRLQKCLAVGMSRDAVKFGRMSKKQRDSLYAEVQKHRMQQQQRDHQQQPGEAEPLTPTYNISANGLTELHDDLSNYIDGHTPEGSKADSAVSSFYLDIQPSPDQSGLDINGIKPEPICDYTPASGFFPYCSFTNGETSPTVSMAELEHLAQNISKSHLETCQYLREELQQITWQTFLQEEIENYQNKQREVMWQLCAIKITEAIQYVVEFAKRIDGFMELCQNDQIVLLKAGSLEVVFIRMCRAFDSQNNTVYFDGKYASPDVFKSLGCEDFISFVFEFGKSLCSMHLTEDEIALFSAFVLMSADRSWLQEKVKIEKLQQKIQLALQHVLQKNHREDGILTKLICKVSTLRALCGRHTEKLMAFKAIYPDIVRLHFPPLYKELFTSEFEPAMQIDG

- Activity [1]: inactive
- Activity [2]: inactive
SMILES: CCS(=O)(=O)c1ccc(CC(=O)Nc2ccc(CCN3CCCc4ccc(CC(C)C)cc43)cc2)cc1
